Source: publication PMC3068608 (Journal of medicinal chemistry, 2011)

By UniProt entry, the sequences of proteins in these tests, tags left out.
UniProt P35372, whole entry: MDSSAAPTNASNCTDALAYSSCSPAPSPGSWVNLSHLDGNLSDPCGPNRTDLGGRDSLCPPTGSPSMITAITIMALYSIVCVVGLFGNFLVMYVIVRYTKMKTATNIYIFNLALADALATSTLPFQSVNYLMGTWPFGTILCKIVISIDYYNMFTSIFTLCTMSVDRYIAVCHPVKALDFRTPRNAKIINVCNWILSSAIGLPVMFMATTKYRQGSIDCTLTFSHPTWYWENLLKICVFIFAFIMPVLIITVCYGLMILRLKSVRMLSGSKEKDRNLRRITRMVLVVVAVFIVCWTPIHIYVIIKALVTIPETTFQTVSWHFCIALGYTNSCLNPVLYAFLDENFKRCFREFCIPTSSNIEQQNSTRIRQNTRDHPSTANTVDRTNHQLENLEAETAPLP

Molecular target: human μ opioid receptor (Homo sapiens, UniProt P35372)
Test: [35S]GTPγS binding mediated by the μ opioid receptor, CHO membranes
Format: biochemical
Details: read-out: Emax (% maximal stimulation)

CCNc1nc2cc3c(cc2s1)C[C@@H]1[C@@H]2CCCC[C@]32CCN1CC1CC1 [19a, N′-Ethyl-aminothiazolo[5,4-b]-N-cyclopropylmethylmorphinan] showed an Emax of 83 ± 2.5%.

For CNc1nc2cc3c(cc2s1)C[C@@H]1[C@@H]2CCCC[C@]32CCN1CCCF [13c, N′-Methyl-aminothiazolo[5,4-b]-N-fluoropropylmorphinan], the Emax was 100 ± 5.3%.
